{
  "sequences": {"note": "By UniProt entry, the sequences of proteins in these tests, tags left out. Residues count along the entry.", "UniProt Q61790, 24-521": "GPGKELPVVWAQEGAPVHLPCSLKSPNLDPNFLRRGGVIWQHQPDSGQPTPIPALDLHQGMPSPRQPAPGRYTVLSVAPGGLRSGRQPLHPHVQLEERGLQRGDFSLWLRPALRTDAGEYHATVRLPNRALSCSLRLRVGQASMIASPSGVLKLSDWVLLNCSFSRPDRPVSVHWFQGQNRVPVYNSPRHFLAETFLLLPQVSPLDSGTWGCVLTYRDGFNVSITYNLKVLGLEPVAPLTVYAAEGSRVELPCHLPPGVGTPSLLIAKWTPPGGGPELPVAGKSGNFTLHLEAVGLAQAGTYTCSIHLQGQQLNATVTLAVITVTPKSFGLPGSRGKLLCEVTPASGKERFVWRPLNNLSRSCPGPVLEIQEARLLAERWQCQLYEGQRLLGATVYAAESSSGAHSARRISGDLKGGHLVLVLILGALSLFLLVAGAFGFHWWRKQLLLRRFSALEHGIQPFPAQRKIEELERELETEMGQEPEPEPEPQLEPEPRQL"},
  "source": "paper PMC11040377",
  "key": {"[1]": {"target": "neuronal Lag3, endogenous on mouse primary cortical neurons (mouse (endogenous in primary cortical neurons)) (UniProt Q61790)", "test": "cell surface binding assay (streptavidin-alkaline phosphatase staining); mouse primary cortical neurons, WT and Lag3-/-; Tau-biotin PFF at different concentrations; specific binding to Lag3 by subtracting the binding to Lag3-/- neurons from that to WT neurons"}, "[2]": {"target": "Lag3 (lymphocyte-activation gene 3), on transfected SH-SY5Y cells (not stated (human or mouse cDNA cloned)) (UniProt Q61790)", "test": "cell surface binding assay (streptavidin-alkaline phosphatase staining); SH-SY5Y cells transfected with Lag3 or its deletion mutants; biotin-labelled ligand at different concentrations (monomer equivalent) in DMEM with 10% FBS, 2 h at RT; washed, fixed, bound biotin detected with streptavidin-AP and BCIP/NBT; intensity by ImageJ, KD by GraphPad Prism"}},
  "data": [
    {"substance": "Tau-biotin PFF (AD-Tau-induced Tau preformed fibrils, biotin-labelled) (from UniProt P10636-8 1-441)", "values": [
      {"measurement": "Kd", "setting": "[1]", "result": 0.1, "unit": "µM"},
      {"measurement": "Kd", "setting": "[2]", "result": 0.158, "unit": "µM"}
    ]}
  ]
}
